Measured values from paper PMC3646032 (PLoS ONE, 2013).

Chains of the proteins cited; added tags and fusions are not shown. Residues count along the entry.
UniProt P9WPY3, 2-176: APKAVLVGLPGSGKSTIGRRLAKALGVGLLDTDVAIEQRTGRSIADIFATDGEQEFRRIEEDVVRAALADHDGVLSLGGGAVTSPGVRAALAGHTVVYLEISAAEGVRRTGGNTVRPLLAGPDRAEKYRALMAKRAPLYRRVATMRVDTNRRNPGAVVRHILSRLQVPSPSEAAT

What was measured:
MtSK [1] = molecular target: T1, MtSK (Mycobacterium tuberculosis, UniProt P9WPY3); settings: cited from earlier work
[2] = molecular target: M. tuberculosis Shikimate Kinase (MtSK) (Mycobacterium tuberculosis, UniProt P9WPY3); assay type: biochemical; settings: pH 7.6
MtSK [3] = molecular target: T1, MtSK; assay: Equilibrium fluorescence spectroscopy, intrinsic tyrosine fluorescence; assay type: binding; settings: fluorescence quench, 25°C (298.15 K), Tris-HCl pH 7.6, free MtSK; read-out: equilibrium dissociation constant (K D)
Description: MtSK intrinsic protein fluorescence measurements were carried out to both determine the order of substrate/product addition/dissociation on/from the catalytic site and distinguish the enzyme kinetic mechanism. As MtSK has no tryptophan residues, changes in protein tyrosine fluorescence (the polypeptide chain of MtSK has 3 Tyr residues) upon ligand binding were monitored. Fluorescence measurements were carried out in a RF-5301 PC Spectrofluorophotometer (Shimadzu) at 25°C. Excitation wavelength was 280 nm and emission spectra were collected from 300 to 500 nm. The maximum values of fluorescence intensity at 315 nm values were plotted as a function of increasing ligand concentration. Excitation and emission slits were 5 nm. As protein tyrosine typically has a low sensitivity (low molar absorption coefficient and low fluorescence quantum yield), MtSK concentration for binding experiments was 10 µM. […] However, owing to a large inner filter effect, ATP and ADP binding to free MtSK could not be determined by fluorescence spectroscopy.
Equilibrium fluorescence spectroscopy data were fitted to Eq. 4, in which F is the observed fluorescence, F 0 is the initial fluorescence, F ∞ is the maximum change in fluorescence at saturating ligand (L) concentration, and K D represents the equilibrium dissociation constant for protein:ligand binary complex formation. […]

For `O=C(O)C1=C[C@@H](O)[C@@H](O)[C@H](O)C1` [SKH, [3R-(3α,4α,5β)]3,4,5-trihydroxy-1-cyclohexene-1-carboxylic acid], the “K SKH” value (MtSK [1]) is given as 410 (±20) µM, the “K SKH (Michaelis constant)” value [2] is given as 650 µM and 650 (±28) µM and the Kd (MtSK [3]) is given as 113 µM.

Values joined by “and” are separate entries in the source; they are usually repeats but may differ in a detail not shown here. Identical values can stand only once.
